Legend:
[1] = plasma and microsomal protein binding corrected
[2] = biological target: delta opioid receptor (DOP) (Homo sapiens, UniProt P41143); assay: Radioligand binding, delta opioid receptor; conditions: 100 nM test compound

Sequences of proteins named here, by UniProt entry; tags and fusion partners are left off.
UniProt P41143, whole entry: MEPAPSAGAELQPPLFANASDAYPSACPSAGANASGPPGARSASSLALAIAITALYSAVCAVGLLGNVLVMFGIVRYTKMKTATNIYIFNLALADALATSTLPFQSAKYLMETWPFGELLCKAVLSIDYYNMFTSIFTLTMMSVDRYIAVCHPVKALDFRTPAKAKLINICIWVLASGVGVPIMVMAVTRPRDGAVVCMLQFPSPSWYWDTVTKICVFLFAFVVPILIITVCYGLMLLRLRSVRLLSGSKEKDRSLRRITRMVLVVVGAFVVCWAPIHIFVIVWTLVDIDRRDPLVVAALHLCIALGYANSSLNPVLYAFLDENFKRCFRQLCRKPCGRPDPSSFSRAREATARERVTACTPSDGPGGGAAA

Row | SMILES | E (hepatic extraction ratio) [1] | percent displacement of bound radioligand, opioid δ [2] [%]
1 | CC[C@@H]1CN2CCc3c([nH]c4cccc(O)c34)[C@@H]2C[C@@H]1/C(=C\OC)C(=O)OC [9-hydroxycorynantheidine] | 0.01 | 3.4
2 | CC[C@@H]1CN2CCc3c([nH]c4ccccc34)[C@@H]2C[C@@H]1/C(=C\OC)C(=O)OC [corynantheidine] | 0.20 | 

From article PMC7676998 (Journal of medicinal chemistry, 2019)
